From PubChem BioAssay AID720717 (ICCB-Longwood Screening Facility, Harvard Medical School, 2013)
Values joined by “and” are separate entries in the source; they are usually repeats but may differ in a detail not shown here. Equal values may be shown once. Only a part is listed here, and it is no random draw. Active and inactive are the calls of the source.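 Rule for the calls: active = both repeat wells score below -2 in polarization z-score versus plate sample wells, excluding overly bright wells; inactive = the rest.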

system: LANA (ORF73) N-terminal peptide binding to nucleosomes, Human herpesvirus 8; experiment: LANA N-terminal peptide–nucleosome interaction blockers – biochemical, fluorescence polarization, FITC-LANA1-23, chicken nucleosomes, primary screen (AID 720717); settings: FITC-LANA1-23 / chicken nucleosome fluorescence polarization; stronger effect = lower value
How it was run: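 Test system: purified chicken nucleosomes with FITC-labelled LANA N-terminal peptide (1-23); Input: 240 nM purified chicken nucleosomes (480 nM peptide binding sites), final; Medium: TEN-BT buffer, pH 7.5; Timing: 10–45 min, room temperature; Technique: fluorescence polarization, 480 nm excitation, 535 nm parallel and perpendicular emission; Replication: duplicates.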

Row | SMILES | z-score
1 | CN(CCCl)CCCl | inactive: -0.524 and inactive: 0.546
